The values that follow come from patent US10780090B2, “Heteroaryl compounds useful as inhibitors of SUMO activating enzyme” (Millennium Pharmaceuticals, Inc., priority 2014, dated 2020).

The chains behind the UniProt entries cited, without tags or fusion partners.
UniProt Q9UBT2, whole entry: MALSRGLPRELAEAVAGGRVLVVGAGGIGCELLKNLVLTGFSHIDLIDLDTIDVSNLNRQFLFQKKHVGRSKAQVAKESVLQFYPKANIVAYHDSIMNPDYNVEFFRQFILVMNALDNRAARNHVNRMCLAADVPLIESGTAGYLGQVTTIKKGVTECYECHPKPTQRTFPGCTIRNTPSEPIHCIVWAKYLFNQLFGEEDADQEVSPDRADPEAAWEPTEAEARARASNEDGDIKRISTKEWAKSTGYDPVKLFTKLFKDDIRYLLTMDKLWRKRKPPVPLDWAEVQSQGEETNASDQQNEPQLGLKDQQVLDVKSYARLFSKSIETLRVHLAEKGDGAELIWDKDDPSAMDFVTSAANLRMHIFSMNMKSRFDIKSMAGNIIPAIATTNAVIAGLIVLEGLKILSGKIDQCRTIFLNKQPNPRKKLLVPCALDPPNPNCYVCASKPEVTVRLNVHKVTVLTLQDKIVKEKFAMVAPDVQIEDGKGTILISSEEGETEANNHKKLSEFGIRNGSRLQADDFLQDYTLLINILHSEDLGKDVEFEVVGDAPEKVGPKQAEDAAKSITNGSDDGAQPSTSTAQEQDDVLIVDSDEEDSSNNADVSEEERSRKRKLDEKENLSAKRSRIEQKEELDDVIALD
UniProt Q9UBE0, whole entry partner: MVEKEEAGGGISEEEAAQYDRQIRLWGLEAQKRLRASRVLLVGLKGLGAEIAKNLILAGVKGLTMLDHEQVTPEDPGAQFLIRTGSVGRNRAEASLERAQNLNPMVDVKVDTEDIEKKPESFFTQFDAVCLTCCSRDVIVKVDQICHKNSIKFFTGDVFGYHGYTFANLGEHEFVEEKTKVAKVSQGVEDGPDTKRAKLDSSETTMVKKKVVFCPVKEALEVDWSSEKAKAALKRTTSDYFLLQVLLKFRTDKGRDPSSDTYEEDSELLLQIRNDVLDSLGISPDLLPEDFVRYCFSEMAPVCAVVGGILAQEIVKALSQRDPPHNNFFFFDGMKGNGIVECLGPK

Usually pIC50 stands for the negative decadic logarithm of the IC50, by convention in mol/L.

pIC50: −log10 of the molar value. A value given as a limit tells only on which side of the number the result lay.

The target of the assay is recombinant human SAE enzyme (Homo sapiens (Human), UniProt Q9UBT2). The assay can be described thus: SAE HTRF enzyme assay. The format is biochemical. The note with it: for Percent Inhibition: Concentration 0.111 μM; for pIC50: class symbols A/B/C.

With `C#Cc1ccc2c(c1)C(c1cc(C(=O)c3cncnc3N[C@@H]3C[C@H](COS(N)(=O)=O)[C@@H](O)C3)sc1C)OCC2` (single isomer, unassigned), the Percent Inhibition was 98% and the pIC50 was above 8.00.

For `CC(N)(c1cccc(Cl)c1)c1csc(C(=O)c2cncnc2N[C@@H]2C[C@H](COS(N)(=O)=O)[C@@H](O)[C@H]2O)c1` (single isomer, unassigned), the Percent Inhibition is 99% and the negative logarithm of the IC50 (pIC50) was above 8.00.

In the case of `NS(=O)(=O)OC[C@H]1C[C@@H](Nc2ncncc2C(=O)c2cc(C(O)c3cccc(Cl)c3)c(Cl)s2)C[C@@H]1O` (single isomer, unassigned), the Percent Inhibition was 99% and the pIC50 was above 8.00.
